Measured values as given in ChEMBL document CHEMBL6103593, “Design of Selective BRD4 Inhibitors for the Treatment of Autosomal Dominant Polycystic Kidney Disease” (J Med Chem, 2025).

Chains of the proteins cited; added tags and fusions are not shown. Lines headed by an entry give the natural chain unless they say otherwise; changes in a name come on top.
UniProt P19784, whole entry, looked up: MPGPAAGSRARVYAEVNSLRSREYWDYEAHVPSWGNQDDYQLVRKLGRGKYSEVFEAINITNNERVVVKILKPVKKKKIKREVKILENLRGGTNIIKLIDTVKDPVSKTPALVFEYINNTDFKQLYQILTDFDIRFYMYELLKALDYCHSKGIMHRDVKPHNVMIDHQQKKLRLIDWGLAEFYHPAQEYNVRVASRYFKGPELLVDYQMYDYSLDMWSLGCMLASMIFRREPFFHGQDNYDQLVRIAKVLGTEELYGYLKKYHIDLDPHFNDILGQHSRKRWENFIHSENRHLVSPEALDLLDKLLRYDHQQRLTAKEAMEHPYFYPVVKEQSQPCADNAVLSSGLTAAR
UniProt P08069, whole entry, looked up: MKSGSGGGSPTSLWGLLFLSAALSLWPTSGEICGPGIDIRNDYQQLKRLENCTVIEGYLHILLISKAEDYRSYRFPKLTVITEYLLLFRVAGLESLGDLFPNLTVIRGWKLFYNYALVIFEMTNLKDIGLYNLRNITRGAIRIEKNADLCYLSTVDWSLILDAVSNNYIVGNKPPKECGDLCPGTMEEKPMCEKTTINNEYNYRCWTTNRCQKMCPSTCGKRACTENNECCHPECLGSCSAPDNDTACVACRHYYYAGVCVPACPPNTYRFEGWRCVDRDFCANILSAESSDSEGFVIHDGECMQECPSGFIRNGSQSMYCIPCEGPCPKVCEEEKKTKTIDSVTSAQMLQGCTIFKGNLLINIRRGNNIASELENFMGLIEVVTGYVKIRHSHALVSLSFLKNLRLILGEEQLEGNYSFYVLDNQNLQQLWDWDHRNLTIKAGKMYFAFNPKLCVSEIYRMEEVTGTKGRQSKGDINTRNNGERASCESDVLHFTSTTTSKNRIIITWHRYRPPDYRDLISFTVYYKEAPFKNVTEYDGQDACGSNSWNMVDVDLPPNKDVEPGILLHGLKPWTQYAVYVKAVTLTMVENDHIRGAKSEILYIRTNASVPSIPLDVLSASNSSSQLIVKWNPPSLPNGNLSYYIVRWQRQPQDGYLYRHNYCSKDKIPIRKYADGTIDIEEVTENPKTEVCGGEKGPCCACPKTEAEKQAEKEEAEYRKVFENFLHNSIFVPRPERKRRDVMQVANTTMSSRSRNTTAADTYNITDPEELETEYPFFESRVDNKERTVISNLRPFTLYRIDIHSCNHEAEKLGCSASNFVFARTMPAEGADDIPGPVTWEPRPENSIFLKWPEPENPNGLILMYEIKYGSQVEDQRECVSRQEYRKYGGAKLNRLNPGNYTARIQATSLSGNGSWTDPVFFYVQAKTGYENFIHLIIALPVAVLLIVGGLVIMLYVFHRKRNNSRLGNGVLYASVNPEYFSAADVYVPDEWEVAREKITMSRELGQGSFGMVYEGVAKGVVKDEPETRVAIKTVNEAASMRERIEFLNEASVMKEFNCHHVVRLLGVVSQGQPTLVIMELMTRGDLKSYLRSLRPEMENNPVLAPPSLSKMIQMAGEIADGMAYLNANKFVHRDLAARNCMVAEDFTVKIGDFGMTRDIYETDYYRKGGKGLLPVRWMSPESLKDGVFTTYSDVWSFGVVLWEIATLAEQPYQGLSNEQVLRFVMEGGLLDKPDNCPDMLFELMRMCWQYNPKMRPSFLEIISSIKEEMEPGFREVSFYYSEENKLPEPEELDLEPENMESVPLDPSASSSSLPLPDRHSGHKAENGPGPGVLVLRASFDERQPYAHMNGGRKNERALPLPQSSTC
UniProt P35968, whole entry: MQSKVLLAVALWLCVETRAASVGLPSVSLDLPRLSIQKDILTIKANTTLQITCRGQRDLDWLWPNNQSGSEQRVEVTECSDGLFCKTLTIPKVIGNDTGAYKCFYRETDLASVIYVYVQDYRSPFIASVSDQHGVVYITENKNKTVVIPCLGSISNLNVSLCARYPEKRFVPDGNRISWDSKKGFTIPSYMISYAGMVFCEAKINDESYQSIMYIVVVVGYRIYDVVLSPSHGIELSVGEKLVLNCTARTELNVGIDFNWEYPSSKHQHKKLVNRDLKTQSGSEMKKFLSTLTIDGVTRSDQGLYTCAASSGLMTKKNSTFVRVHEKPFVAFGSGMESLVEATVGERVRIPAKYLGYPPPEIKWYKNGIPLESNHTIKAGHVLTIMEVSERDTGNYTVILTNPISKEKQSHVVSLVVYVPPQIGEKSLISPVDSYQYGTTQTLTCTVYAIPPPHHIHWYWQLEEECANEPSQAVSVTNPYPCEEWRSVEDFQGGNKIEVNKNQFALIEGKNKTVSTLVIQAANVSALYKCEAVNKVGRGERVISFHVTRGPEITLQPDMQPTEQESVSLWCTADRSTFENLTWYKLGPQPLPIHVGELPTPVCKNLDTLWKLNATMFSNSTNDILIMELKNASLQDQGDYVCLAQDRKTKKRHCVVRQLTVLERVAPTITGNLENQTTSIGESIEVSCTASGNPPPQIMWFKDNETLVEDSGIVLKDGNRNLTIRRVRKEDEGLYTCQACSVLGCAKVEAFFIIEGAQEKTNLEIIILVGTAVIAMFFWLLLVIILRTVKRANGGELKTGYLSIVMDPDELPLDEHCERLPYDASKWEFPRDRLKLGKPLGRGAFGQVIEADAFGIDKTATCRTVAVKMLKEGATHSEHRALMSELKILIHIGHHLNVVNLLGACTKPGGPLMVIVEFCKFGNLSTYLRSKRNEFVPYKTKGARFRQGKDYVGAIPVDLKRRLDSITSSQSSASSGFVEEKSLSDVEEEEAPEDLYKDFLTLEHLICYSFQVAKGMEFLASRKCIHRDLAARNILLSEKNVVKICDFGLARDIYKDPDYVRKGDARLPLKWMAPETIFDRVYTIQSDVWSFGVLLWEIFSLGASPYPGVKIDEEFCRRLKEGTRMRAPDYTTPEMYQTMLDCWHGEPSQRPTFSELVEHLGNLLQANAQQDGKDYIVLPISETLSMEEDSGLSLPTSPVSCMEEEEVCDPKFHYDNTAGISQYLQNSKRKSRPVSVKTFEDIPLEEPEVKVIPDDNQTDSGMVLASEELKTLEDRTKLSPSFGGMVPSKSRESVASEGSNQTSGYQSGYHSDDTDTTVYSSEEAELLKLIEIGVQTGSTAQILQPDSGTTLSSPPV
UniProt P07948: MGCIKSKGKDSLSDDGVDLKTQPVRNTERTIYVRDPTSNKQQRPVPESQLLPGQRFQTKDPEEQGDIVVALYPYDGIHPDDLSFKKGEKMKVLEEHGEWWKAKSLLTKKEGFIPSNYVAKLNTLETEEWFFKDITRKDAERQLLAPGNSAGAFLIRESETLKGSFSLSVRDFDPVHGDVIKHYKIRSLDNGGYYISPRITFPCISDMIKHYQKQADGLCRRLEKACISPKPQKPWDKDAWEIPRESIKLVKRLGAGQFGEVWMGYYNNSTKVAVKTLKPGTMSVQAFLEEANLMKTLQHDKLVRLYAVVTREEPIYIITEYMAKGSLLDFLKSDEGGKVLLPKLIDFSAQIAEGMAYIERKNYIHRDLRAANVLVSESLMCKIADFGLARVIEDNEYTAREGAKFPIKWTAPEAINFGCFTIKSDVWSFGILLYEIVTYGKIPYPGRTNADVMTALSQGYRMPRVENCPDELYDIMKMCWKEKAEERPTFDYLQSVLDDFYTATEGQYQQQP

Key:
[1] = target: T1, Bromodomain-containing protein 4 (Homo sapiens, UniProt O60885); assay: Inhibition of BRD4 bromodomain 1 (44 to 168 residues) (unknown origin) extracted from Escherichia coli BL21 (D3) codon plus RIL cells at 1 uM incubated for 4 hrs by fluorescence anisotropy relative to control
[2] = target: T1, Bromodomain-containing protein 4; assay: Inhibition of BRD4 bromodomain 2 (332 to 460 residues) (unknown origin) extracted from Escherichia coli BL21 (D3) codon plus RIL cells at 1 uM incubated for 4 hrs by fluorescence anisotropy relative to control
[3] = target: Casein kinase II subunit alpha' (Homo sapiens) (UniProt P19784); assay: Inhibition of human CK2alpha2 (unknown origin) at 1 uM relative to control
[4] = target: Dual specificity mitogen-activated protein kinase kinase 1 (Homo sapiens) (UniProt Q02750); assay: Inhibition of human MEK1 (unknown origin) at 1 uM relative to control
[5] = target: Insulin-like growth factor 1 receptor (Homo sapiens) (UniProt P08069); assay: Inhibition of human IGF-1R at 1 uM relative to control
[6] = target: Vascular endothelial growth factor receptor 2 (Homo sapiens) (UniProt P35968); assay: Inhibition of human KDR at 1 uM relative to control
[7] = target: Tyrosine-protein kinase Lyn (Homo sapiens) (UniProt P07948); assay: Inhibition of human Lyn at 1 uM relative to control

SMILES	inhibition [1]	inhibition [2]	other results
CCc1cc(Nc2nn(C)c3ccccc23)nc(Nc2ccc3c(c2)N(C(C)C)[C@H](C)C(=O)N3C)n1	–	–	inhibition [3]: 10%; inhibition [4]: 10%
CC(C)N1c2cc(Nc3cccc(Nc4nn(C5CC5)c5ccccc45)c3)ccc2N(C)C(=O)[C@H]1C	20.1%	60.5%	–
CC(C)N1c2cc(Nc3cccc(Nc4nn(C(C)C)c5ccccc45)c3)ccc2N(C)C(=O)[C@H]1C	17.7%	43.1%	–
CC(C)N1c2cc(Nc3nccc(Nc4nn(C)c5ccccc45)n3)ccc2N(C)C(=O)[C@H]1C	–	–	inhibition [5]: > 30%; inhibition [6]: > 30%; inhibition [7]: > 30%

Continued, in another order:

inhibition [1]	inhibition [2]	SMILES	other results
47.7%	64.8%	CC(C)N1c2cc(Nc3cccc(Nc4nn(C)c5ccccc45)c3)ccc2N(C)C(=O)[C@H]1C	–
46.2%	58.2%	CCn1nc(Nc2cccc(Nc3ccc4c(c3)N(C(C)C)[C@H](C)C(=O)N4C)c2)c2ccccc21	–
